Values quoted from earlier work, collected in patent US20030078190A1 (priority 2001, published 2003).
Like-named read-outs stand apart in the source and are kept apart here.

Target: AT1 receptor (Homo sapiens, UniProt P30556)
Conditions: cited from earlier work

Structure (SMILES): CCCCc1nc(Cl)c(CO)n1Cc1ccc(-c2ccccc2-c2nn[nH]n2)cc1 [losartan]
- Affinity for the AT1 receptor: lower affinity
- Affinity for the AT1 receptor (listed as Losartan): weak binding properties
